Patent US4746675A, “External pharmaceutical composition” (Teijin Limited, priority 1983, dated 1988)
Where two headings read alike, the source gives them in different places.

Conditions: rat, in vivo
Protocol: An ointment was prepared from 1 part by weight of indomethacin, 10 parts by weight of compound (168) and 89 parts by weight of a hydrophilic ointment (composed of 250 parts of white Vaseline, 220 parts by weight of stearyl alcohol, 120 parts by weight of propylene glycol, 15 parts by weight of sodium laurylsulfate, 0.25 part by weight of ethyl p-hydroxybenzoate, 0.15 part by weight of propyl p-hydroxybenzoate and a small amount of purified water). The back of a rat (body weight about 250 g) was cut by an electric hair-clipper, and 100 mg of the resulting ointment was applied by a finger to a circular unhaired portion, 4 cm in diameter. The blood was drawn from the tail of the rat periodically, and the concentration of indomethacin in the blood was determined periodically by high-performance liquid chromatography.
Various ointments were prepared from 1 part by weight of indomethacin, 10 parts of each of various penetration enhancers shown in Table 2 and the hydrophilic ointment, and tested as in Example 1.

monooleyl glycerin ester
Concentration of indomethacin in the blood (60 min): 1.4 µg/mL
Concentration of indomethacin in the blood (180 min): 2.1 µg/mL
Concentration of indomethacin in the blood (300 min): 1.9 µg/mL
Concentration of indomethacin in the blood (420 min): 1.8 µg/mL
Concentration of indomethacin in the blood (1440 min): 0.6 µg/mL
